In patent US6958141B2, “Rhenium and technetium complexes containing a hypoxia-localizing moiety” (Bracco International B.V., priority 1991, dated 2005):

Test system: Bovine brain microvessel endothelial cells
Test: Ability to cross endothelial monolayers (permeability index)
Assay type: in vitro ADME
Details: permeability index from PSe, endothelial monolayer, compared with ^3H-water and ^14C-sucrose, first 10 minutes, 37° C.
Excerpt: The examples which follow utilize a model of cell permeability based on the studies of Audus and Borchardt (“Bovine Brain Microvessel Endothelial Cell Monolayers as a Model System for the Blood-Brain Barrier”, Ann. New York Accad. Sci., 1988; 9-18). The model consists of a cultured monolayer of bovine brain endothelial cells, which form tight intercellular junctions. Transit of compounds across the monolayer reflects the ability of such compounds to cross the intact cell membrane by passive, active and/or facilitated diffusion mechanisms. The rate of transit is compared with ^3H2O (a highly permeable tracer) and ^14C-sucrose (a non-permeable tracer). […]
This system was placed into a 37° C., 5% CO2 incubator which contains an orbiting tissue culture plate shaker for agitation and 10 μL samples, from both inside (donor) and outside (acceptor) compartments, were taken simultaneously from a set of 4 Anocell inserts. These samples were counted first in a Gamma counter then, after 72 hours, in a scintillation counter with dual channel capabilities. The fraction of radioactivity transported from the donor to the acceptor wells at each time point over the first 10 minutes of the study was calculated. The average percent of radioactivity transported was plotted vs. time and the slope was estimated by linear regression analysis. […]

Pi: 64.4
Substance: Tc-99m Propylene Amine Oxime [^99mTc-PnAO, reference compound]
